The target of the assay is T1, NK1 receptors (Homo sapiens, UniProt P25103).
T1 construct: endogenous in cells; host or cells: IM9 cells (intact)
As to the kind of experiment: [^3 H]SP saturation experiments in IM9 cells. Conditions: [^3 H]SP radioligand, read-out: average value of Kd calculated in saturation experiments. The format is binding. How it is done:
The evaluation of the antagonist acivity of NK1 receptors was performed with binding and functional tests.
[^3 H]SP Binding Assay in IM9 Cell Line
The assay was carried out on intact cells as described by Payan et al. (1984). The cells were washed with buffer A at pH 7.5 containing (in mM) Tris-HCl 50, NaCl 150 and 0.02% BSA, thereafter were resuspended in a dosage buffer (buffer A added with protease inhibitors), concentration 1×10^7 cells/ml. The cells were incubated with [^3 H]SP in a final volume of 0.5 ml for 60' at room temperature. The non-specific binding was calculated in the presence of […] of non-radioactive SP. The dosage mixture was poured in test tubes for microcentrifugation which were preadsorbed in a solution of BSA 0.5% for at least 3 hours. [^3 H]SP, free and binded, was separated by cell sedimentation with a microcentrifuge (6 min at 12000 g); the supernatant was removed by aspiration. For competitive tests, The cells IM9 were incubated in triplicate with 0.3 nM of [^3 H]SP (average value of Kd calculated in saturation experiments) and the competitive ligands were added at six different concentrations (with dilution 1:10 in the dosage buffer) in order to obtain a complete competition curve. The affinity was measured as pKi.

The chains behind the UniProt entries cited, without tags or fusion partners.
UniProt P25103, whole entry: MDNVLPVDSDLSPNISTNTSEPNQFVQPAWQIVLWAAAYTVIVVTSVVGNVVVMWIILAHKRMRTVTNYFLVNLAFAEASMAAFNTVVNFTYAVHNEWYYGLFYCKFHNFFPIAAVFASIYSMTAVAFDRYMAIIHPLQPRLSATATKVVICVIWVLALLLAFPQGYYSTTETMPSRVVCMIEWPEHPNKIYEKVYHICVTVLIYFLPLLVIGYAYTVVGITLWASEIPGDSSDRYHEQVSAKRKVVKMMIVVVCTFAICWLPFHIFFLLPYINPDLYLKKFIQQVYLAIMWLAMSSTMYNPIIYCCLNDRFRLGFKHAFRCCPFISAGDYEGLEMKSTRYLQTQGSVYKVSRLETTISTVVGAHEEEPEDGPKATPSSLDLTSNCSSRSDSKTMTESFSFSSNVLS

With “[^3 H]SP: tritiated Substance P (SP), radioligand of the IM9 binding assay”, the Kd was 0.3 nM.

The record behind these values is patent US5698710A, “Tachykinins antagonists” (A. Menarini Industrie Farmaceutiche Riunite S.r.l., priority 1994, dated 1997).
